IC50 data for one compound are collected here from patent publication US10358453B2, “Antiviral compounds” (priority 2015, dated 2019).

Amino acid sequences for entries named in this document (tags omitted). A change or cut given only in a name is not applied to a line headed by its entry.
UniProt P28887: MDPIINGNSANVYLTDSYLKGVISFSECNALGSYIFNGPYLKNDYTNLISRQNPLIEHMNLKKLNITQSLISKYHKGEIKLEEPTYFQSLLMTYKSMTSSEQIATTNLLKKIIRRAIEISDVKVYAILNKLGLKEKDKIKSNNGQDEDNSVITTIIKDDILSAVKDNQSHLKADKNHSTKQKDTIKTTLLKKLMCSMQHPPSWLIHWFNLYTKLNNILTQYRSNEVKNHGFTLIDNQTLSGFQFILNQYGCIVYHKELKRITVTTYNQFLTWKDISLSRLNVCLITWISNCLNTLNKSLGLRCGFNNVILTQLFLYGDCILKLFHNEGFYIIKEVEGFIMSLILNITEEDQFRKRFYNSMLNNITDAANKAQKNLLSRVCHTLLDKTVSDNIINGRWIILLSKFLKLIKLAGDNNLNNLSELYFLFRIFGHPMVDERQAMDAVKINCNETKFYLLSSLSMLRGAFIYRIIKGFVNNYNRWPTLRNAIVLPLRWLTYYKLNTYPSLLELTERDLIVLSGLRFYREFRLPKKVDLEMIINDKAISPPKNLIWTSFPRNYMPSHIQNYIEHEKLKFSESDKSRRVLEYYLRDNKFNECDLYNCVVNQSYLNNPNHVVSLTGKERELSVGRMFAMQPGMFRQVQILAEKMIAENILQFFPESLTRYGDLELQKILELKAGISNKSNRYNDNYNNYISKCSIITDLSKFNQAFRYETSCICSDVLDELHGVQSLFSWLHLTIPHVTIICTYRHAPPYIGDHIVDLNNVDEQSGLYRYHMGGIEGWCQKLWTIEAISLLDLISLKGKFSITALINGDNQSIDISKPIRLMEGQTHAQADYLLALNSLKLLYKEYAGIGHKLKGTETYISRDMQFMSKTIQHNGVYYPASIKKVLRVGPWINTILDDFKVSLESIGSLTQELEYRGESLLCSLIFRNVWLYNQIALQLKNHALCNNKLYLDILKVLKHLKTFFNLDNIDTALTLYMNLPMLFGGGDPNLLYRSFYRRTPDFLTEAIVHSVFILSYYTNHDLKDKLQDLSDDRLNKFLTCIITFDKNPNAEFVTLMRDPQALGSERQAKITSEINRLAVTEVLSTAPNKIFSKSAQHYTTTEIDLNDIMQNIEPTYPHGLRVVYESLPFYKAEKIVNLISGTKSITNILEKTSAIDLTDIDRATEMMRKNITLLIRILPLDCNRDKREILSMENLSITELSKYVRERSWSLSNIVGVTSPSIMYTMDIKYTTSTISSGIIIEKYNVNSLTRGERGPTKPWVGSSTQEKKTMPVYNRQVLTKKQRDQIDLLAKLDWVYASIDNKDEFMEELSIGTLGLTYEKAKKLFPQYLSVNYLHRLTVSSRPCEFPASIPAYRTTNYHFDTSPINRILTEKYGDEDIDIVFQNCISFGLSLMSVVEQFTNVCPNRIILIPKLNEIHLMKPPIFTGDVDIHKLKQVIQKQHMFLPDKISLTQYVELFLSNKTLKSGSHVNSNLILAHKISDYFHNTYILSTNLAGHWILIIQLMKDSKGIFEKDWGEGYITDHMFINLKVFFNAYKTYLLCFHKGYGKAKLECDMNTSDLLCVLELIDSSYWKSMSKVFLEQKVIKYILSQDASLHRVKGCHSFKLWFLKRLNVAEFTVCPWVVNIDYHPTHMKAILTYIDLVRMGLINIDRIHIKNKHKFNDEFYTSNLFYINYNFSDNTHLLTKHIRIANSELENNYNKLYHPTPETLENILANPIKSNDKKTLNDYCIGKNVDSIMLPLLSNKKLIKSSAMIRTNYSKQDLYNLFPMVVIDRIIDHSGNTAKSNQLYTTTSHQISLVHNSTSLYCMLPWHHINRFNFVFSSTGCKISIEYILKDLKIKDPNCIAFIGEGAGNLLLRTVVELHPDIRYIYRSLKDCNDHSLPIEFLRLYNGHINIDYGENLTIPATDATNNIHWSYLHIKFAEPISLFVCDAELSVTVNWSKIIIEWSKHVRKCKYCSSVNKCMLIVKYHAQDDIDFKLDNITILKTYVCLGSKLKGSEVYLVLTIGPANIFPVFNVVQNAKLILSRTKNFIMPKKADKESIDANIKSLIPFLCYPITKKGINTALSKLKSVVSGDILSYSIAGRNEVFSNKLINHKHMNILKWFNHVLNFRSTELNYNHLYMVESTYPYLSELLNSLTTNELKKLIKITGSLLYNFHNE

In the assay the target is recombinant RSV complex (Human respiratory syncytial virus A, UniProt P28887). Nature of the assay: RSV polymerase inhibition assay. Type of assay: biochemical. The following applies: IC50, 10 nM recombinant RSV complex, 2 h at 30° C.; Table E = <1 μM, Table F = <50 μM. The procedure: Standard RSV polymerase assays were conducted in the presence of 10 nM recombinant RSV complex in a reaction buffer containing Tris-HCl pH7.5, 6 mM MgCl2, and other additives and substrates including RNA oligonucleotides and radionucleotides. Standard reactions were incubated in 96-well plate format for 2 h at 30° C., in the presence of increasing concentration of inhibitor. The reaction was stopped with 90 μL of 0.1M EDTA, and the reaction product was transferred to a “reading” 96-well plate. After washing of the plate, radiolabeled RNA products were detected according to standard procedures with a Trilux Topcount scintillation counter. The compound concentration at which the enzyme-catalyzed rate was reduced by 50% (IC50) was calculated by fitting the data to a non-linear regression (sigmoidal).

pIC50: −log10 of the molar value.

Regarding `C[C@@]1(N)COc2c1cc([C@](O)(CNC(=O)c1ccc(Cl)s1)C(F)(F)F)nc2-c1ccc(F)cc1` [Compound 110], the pIC50 – broadly, the negative decadic logarithm of the IC50, by convention in mol/L – was above 6.00.
